Source: ChEMBL document CHEMBL4371006, “Discovery of N-[4-(Quinolin-4-yloxy)phenyl]benzenesulfonamides as Novel AXL Kinase Inhibitors” (J Med Chem, 2018)

Experiments:
[1] = species on record: Homo sapiens; experiment: Selectivity ratio of Kd(free) for PLK4 in SILAC-labeled human MDA-MB-231 cells lysate to Kd(free) for AXL in SILAC-labeled human MDA-MB-231 cells lysate
[2] = species on record: Homo sapiens; experiment: Selectivity ratio of Kd(free) for EGFR in SILAC-labeled human MDA-MB-231 cells lysate to Kd(free) for AXL in SILAC-labeled human MDA-MB-231 cells lysate
[3] = species on record: Homo sapiens; experiment: Selectivity ratio of Kd(free) for LIMK1 in SILAC-labeled human MDA-MB-231 cells lysate to Kd(free) for AXL in SILAC-labeled human MDA-MB-231 cells lysate
[4] = species on record: Homo sapiens; experiment: Selectivity ratio of Kd(free) for FYN in SILAC-labeled human MDA-MB-231 cells lysate to Kd(free) for AXL in SILAC-labeled human MDA-MB-231 cells lysate
[5] = species on record: Homo sapiens; experiment: Selectivity ratio of Kd(free) for AURKB in SILAC-labeled human MDA-MB-231 cells lysate to Kd(free) for AXL in SILAC-labeled human MDA-MB-231 cells lysate
[6] = species on record: Homo sapiens; experiment: Selectivity ratio of Kd(free) for RIPK2 in SILAC-labeled human MDA-MB-231 cells lysate to Kd(free) for AXL in SILAC-labeled human MDA-MB-231 cells lysate
[7] = species on record: Homo sapiens; experiment: Selectivity ratio of Kd(free) for C-MET in SILAC-labeled human MDA-MB-231 cells lysate to Kd(free) for AXL in SILAC-labeled human MDA-MB-231 cells lysate
[8] = species on record: Homo sapiens; experiment: Selectivity ratio of Kd(free) for ACVR1 in SILAC-labeled human MDA-MB-231 cells lysate to Kd(free) for AXL in SILAC-labeled human MDA-MB-231 cells lysate
[9] = species on record: Homo sapiens; experiment: Selectivity ratio of Kd(free) for MAP4K5 in SILAC-labeled human MDA-MB-231 cells lysate to Kd(free) for AXL in SILAC-labeled human MDA-MB-231 cells lysate
[10] = species on record: Homo sapiens; experiment: Selectivity ratio of Kd(free) for ABL2 in SILAC-labeled human MDA-MB-231 cells lysate to Kd(free) for AXL in SILAC-labeled human MDA-MB-231 cells lysate
[11] = species on record: Homo sapiens; experiment: Selectivity ratio of Kd(free) for LYN in SILAC-labeled human MDA-MB-231 cells lysate to Kd(free) for AXL in SILAC-labeled human MDA-MB-231 cells lysate
[12] = species on record: Homo sapiens; experiment: Selectivity ratio of Kd(free) for TNK1 in SILAC-labeled human MDA-MB-231 cells lysate to Kd(free) for AXL in SILAC-labeled human MDA-MB-231 cells lysate
[13] = species on record: Homo sapiens; experiment: Selectivity ratio of Kd(free) for YES in SILAC-labeled human MDA-MB-231 cells lysate to Kd(free) for AXL in SILAC-labeled human MDA-MB-231 cells lysate
[14] = species on record: Homo sapiens; experiment: Selectivity ratio of Kd(free) for CSK in SILAC-labeled human MDA-MB-231 cells lysate to Kd(free) for AXL in SILAC-labeled human MDA-MB-231 cells lysate

Measured: Ratio

COc1cc2c(Oc3ccc(NS(=O)(=O)c4cc(F)ccc4F)cc3F)ccnc2cc1OCCCN1CCN(C)CC1
10: [1] | [2] | [3] | [4] | [5] | [6] | [7] | [8] | [9] | [10] | [11] | [12]

COc1cc2c(Oc3ccc(NS(=O)(=O)c4c(F)cccc4F)cc3F)ccnc2cc1OCCCN1CCN(C)CC1
10: [13] | [1] | [2] | [14] | [4] | [6] | [9] | [10] | [11] | [12]
